Experimental data reported in ChEMBL document CHEMBL3588754, “Parallel Synthesis of Hexahydrodiimidazodiazepines Heterocyclic Peptidomimetics and Their in Vitro and in Vivo Activities at μ (MOR), δ (DOR), and κ (KOR) Opioid Receptors” (J Med Chem, 2015).

Tested on: Mus musculus
Assay: Antinociceptive effect in icv dosed C57BL/6 mouse assessed as tail withdrawal latency measured up to 2 hrs by 55 degC Warm water tail withdrawal assay
Assay type: functional

CN(C(=O)Cc1ccc(Cl)c(Cl)c1)C1CCCCC1N1CCCC1 (stereo unspecified)
Activity: Dose-dependent effect
